{"source": "paper PMC6430730", "about": "“A short peptide potentially promotes the healing of skin wound” (Bioscience Reports, 2019)", "tested_on": "HaCaT cells", "test": "EGFR inhibitor on the cellular wound healing activity of OA-GL12", "assay_type": "cell-based, human", "details": "Gefitinib 1 μM alone", "data": [{"smiles": "COc1cc2ncnc(Nc3ccc(F)c(Cl)c3)c2cc1OCCCN1CCOCC1", "note": "[Gefitinib]", "values": [{"measurement": "repair rates of scratch", "value": "lower when compared with vehicle"}]}]}
